Measurements taken from patent US4968539A, “Liquid crystal membrane” (Lion Corporation, priority 1987, dated 1990).

Columns and labels:
[1] = Isosorbide dinitrate concentration in rabbit blood, drug reservoir with heat generation sheet
[2] = Cumulative amount of isosorbide dinitrate permeated through membrane and hairless rat skin with intermittent heating; conditions: heating to 38° C and cooling at intervals of 6 h; TPS-303 membrane
[3] = Cumulative amount of isosorbide dinitrate permeated through membrane with intermittent heating, vertical-type diffusion cell; conditions: heating and cooling at intervals of 2 h; TPS-303 membrane

Structure (SMILES): O=[N+]([O-])O[C@H]1CO[C@H]2[C@@H]1OC[C@H]2O[N+](=O)[O-]
- Concentration in blood ([1]; 10 hr (after heating 0 to 10 h)): 280 ng/mL
- Concentration in blood ([1]; 20 hr (after leaving to cool)): 135 ng/mL
- Concentration in blood ([1]; 30 hr (after heating 20 to 30 h)): 302 ng/mL
- Concentration in blood ([1]; 40 hr (after leaving to cool)): 158 ng/mL
- Permeation pattern of the drug through the skin (cumulative amount, FIG. 4) [2]: the permeation pattern of the drug through the skin can be regulated suitably by controlling the temperature of the heat generation system
- Drug delivery pattern (cumulative amount of the permeated drug, FIG. 3) [3]: the drug delivery pattern can be regulated suitably by controlling the temperature of the heat generation system
